scFv variants of Ab-95 (light chain) against a SARS-CoV-2 spike peptide

Target: peptide PDVDLGDISGINAS, taken from heptad repeat 2 (HR2) of SARS-CoV-2 spike.

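The starting antibody came from a phage panning campaign against this peptide. Library AAYL52 holds single substitutions and randomly drawn double and triple substitutions in the CDRs. The assay is AlphaSeq: two haploid yeast populations carry antibody and antigen on their surface. The frequency of each diploid, read from paired DNA barcodes, reflects how well the two displayed proteins bind. Scores were corrected for input abundance and mapped to Kd with protein pairs of known affinity run in the same pool. There are three technical replicates.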

Parent: Ab-95, a human scFv built as VH, three GGGGS repeats, VL. Only the CDRs of the light chain vary.
VH: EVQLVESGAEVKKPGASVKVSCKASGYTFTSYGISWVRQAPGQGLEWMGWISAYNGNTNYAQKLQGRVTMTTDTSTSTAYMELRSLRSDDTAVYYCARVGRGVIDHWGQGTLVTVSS
VL: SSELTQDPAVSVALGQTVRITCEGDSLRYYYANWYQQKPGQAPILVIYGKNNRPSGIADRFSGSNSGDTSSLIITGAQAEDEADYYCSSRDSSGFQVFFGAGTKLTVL

Changes read parent residue, position, new residue, counted from the first residue of the VL shown. This list gathers variants with a substitution at G49 (VL, numbered from residue 1). The read-out is the apparent dissociation constant on a log10 scale (nM): the lower, the stronger. A pair that was not seen in that replicate is written "ND"; this usually means weak binding, but a binder can also be missed. Background: pairings of library AAYL52 with three empty control strains gave a value in 28% of cases (median 3.91, 5th percentile 2.90). Values in that range, when seen in few replicates, are hard to tell from nonspecific mating.

Variant G49W+K50M+R90N showed ND, ND, 4.06.
Variant D25S+G49A+F98N showed ND, 3.94, ND.
Variant D25G+G49E+G94L showed ND, ND, ND.
Variant D25Y+G49V+P54W showed ND, ND, 4.16.
Variant S26T+A32R+G49S showed 4.36, ND, 4.52.
Variant S26V+G49C+S89Y showed 3.55, ND, ND.
Variant G24I+G49W+Q96D showed 3.08, 5.00, ND.
Variant G49F showed 4.55, 4.99, ND.
Variant G49M+K50M+F95A showed 5.36, 4.64, 3.79.
Variant D25G+G49W showed ND, ND, ND.
Variant D25N+Y29M+G49H showed ND, ND, ND.
Variant G49P+S88R+Q96Y showed 3.89, 3.59, ND.
Variant Y29C+G49F+S92K showed 3.79, ND, 4.28.
Variant G49T+S93P+G94D showed ND, ND, ND.
Variant R28M+G49M+S89E showed 4.92, ND, ND.
Variant E23R+G49H+S89K showed ND, ND, ND.
Variant G49I+K50M showed ND, ND, ND.
Variant D25A+G49W+D91T showed ND, ND, ND.
Variant G49D+S89T+S93L showed 3.02, 3.27, 3.00.
Variant E23G+G49D+D91F showed 3.84, ND, ND.
Variant G49C+F95N+V97F showed ND, 4.58, 3.85.
Variant S26Q+G49V+F98R showed 4.12, ND, 3.71.
Variant L27M+G49C+S89T showed ND, ND, ND.
Variant D25G+G49V+N52T showed 3.23, 3.32, ND.
Variant G49M+D91V+Q96K showed ND, ND, 3.03.
Variant G49N+S88P+F95Q showed ND, ND, ND.
Variant G49T+F98D showed 4.92, 4.27, 3.87.
Variant R28C+G49L+N51Q showed 5.09, 5.19, ND.
Variant G49S+P54Y+F98E showed ND, ND, ND.
Variant G49I+S89M+Q96S showed ND, ND, 4.35.
Variant G49C+R53F+S93N showed ND, ND, ND.
Variant G49N+S55E+S89M showed 4.53, 4.28, 3.61.
Variant G49S+N52G showed 4.00, 3.05, ND.
Variant A32D+G49Y+S92E showed ND, 4.02, ND.

Repeated from above, the 2 best binders with a signal in all replicates:

For G49D+S89T+S93L, the assay gave 3.02, 3.27, 3.00.
For G49N+S55E+S89M, the assay gave 4.53, 4.28, 3.61.

Parent in this assay: reference entry 2.31, copy in this library 2.25.

Source: Engelhart et al. 2022 (doi:10.1038/s41597-022-01779-4), MIT Lincoln Laboratory and A-Alpha Bio; data file from the FLAb repository.